Reference: US6921531B2, “Administering bifunctional molecules containing a drug moiety and presenter protein ligand for therapy” (The Board of Trustees of the Leland Stanford Junior …, priority 1998, dated 2005)
pKd: −log10 of the molar value.

By UniProt entry, the sequences of proteins in these tests, tags left out.
UniProt P62942, whole entry: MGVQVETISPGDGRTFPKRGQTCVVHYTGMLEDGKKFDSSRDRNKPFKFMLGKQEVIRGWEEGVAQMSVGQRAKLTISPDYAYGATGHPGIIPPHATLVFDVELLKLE

Biological target: FKBP12 (Homo sapiens, UniProt P62942)
Assay: Binding constants (Kd) for FKBP12, isothermal titration calorimetry
Conditions: read-out: Binding constant (Kd) for FKBP12; ITC, 25° C., pH 7.2, 150 mM NaCl, 20 mM Tris
Description: SLF was synthesized according to the procedures of Holt et al. [J. Am. Chem. Soc. 1993, 115, 9925]. SLF was coupled to the N-terminus of the resin-bound protected pYEEI peptide using PyBOP. The heterodimeric SLFpYEEI was deprotected and cleaved from the Novasyn TGT resin (Calbiochem-Novabiochem, San Diego, Ca.) using 25% trifluoroacetic acid and 2.5% triisopropyl silane in methylene chloride and the desired product was isolated using reverse phase HPLC. C. […] Recombinant FKBP12 or FKBP52 bind to the FK506 moiety of FKpYEEI, thus creating an enlarged binding surface. Recombinant FKBP12 was expressed as a GST fusion protein and bound to glutathione beads (Pharmacia). Using thrombin (Sigma) to cleave the GST-FKBP12 fusion protein at a thrombin cleavage site in the linker between GST and FKBP12, recombinant FKBP12 could be released from the glutathione beads where GST remained bound. FKBP52 was expressed with a tag of six histidine residues at its N-terminus (pET28c expression vector, Novagen). […]
SLFpYEEI and FKpYEEI are bifunctional molecules that can bind FKBP12 and FKBP52 as well as the Fyn SH2 domain (FIG. 2). The binding constants (Kd values) of the bifunctional molecules for the three proteins were measured using isothermal titration calorimetry (ITC) (Table 1).

pKd: 7.70
Compound: CCC(C)(C)C(=O)C(=O)N1CCCC[C@H]1C(=O)O[C@H](CCc1ccc(OC)c(OC)c1)c1cccc(OCC(=O)O)c1
